Among the data in PubChem BioAssay AID1422 (Emory University Molecular Libraries Screening Center, 2008) are inhibition values, retold here.

Sequences of proteins named here, by UniProt entry; tags and fusion partners are left off.
UniProt P43116, whole entry: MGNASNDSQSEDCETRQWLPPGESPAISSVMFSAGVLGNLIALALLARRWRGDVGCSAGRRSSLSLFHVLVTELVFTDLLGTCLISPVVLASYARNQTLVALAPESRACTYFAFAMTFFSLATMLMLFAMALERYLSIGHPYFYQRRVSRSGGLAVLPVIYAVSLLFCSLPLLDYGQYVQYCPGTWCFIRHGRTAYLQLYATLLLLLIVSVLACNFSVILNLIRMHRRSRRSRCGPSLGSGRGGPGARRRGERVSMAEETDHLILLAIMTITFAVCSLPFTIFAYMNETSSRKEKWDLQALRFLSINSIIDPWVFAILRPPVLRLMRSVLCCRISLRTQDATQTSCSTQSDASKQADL

Only a part is listed here, and it is no random draw. Calls of active or inactive are those of the source.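 How the source made its calls: active means percent inhibition above 40 after rounding to a whole number; inactive means the rest.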

The assay has as its target Prostaglandin E2 receptor EP2 subtype (Homo sapiens) (UniProt P43116). Briefly: human EP2 receptor antagonists, primary screen, TR-FRET cAMP, C6 glioma cells (AID 1422).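 Further: rat C6 glioma host cells with rolipram phosphodiesterase inhibitor present; the protocol text gives 20 µM as final concentration.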 To be noted: C6 glioma cells expressing human EP2, cAMP TR-FRET; at 25 µM; active compounds read high; cells stimulated with saturating PGE2.
Turning to `COc1ccccc1OP(C)(=O)Nc1c(C)n(C)n(-c2ccccc2)c1=O` (stereo not drawn), the inhibition was inactive: 9.76%.

Consider `O=C(OCCCN1CCCC1)C(O)(c1ccccc1)C1CCCCC1` (stereo not drawn), for which the inhibition was inactive: 5.46%.

With `OCCSCCO`, the inhibition was inactive: 11.7%.

`CP(=O)(Oc1ccccc1)N1CCOC1=O` (stereo not drawn): the inhibition is inactive: 25.8%.

Turning to `CCc1ccc(OP(C)(=O)Nc2cccnc2)cc1` (stereo not drawn), the inhibition is inactive: 6.82%.

As to `CC(C)(C)c1ccc(OP(C)(=O)O)cc1`, the inhibition is inactive: 9.29%.

Regarding `COc1ccccc1OP(C)(=O)Nc1ccccc1Br` (stereo not drawn), the inhibition is inactive: 3.62%.

With `CP(=O)(Nc1ccc(Cl)cc1)Oc1ccc(F)cc1` (stereo not drawn), the inhibition was inactive: 21.6%.

Consider `CN(C)C(=O)c1c([N+](=O)[O-])cc([N+](=O)[O-])cc1[N+](=O)[O-]`, for which the inhibition is inactive: 9.97%.

Turning to `CCOC(=O)c1ccc(NP(C)(=O)Oc2ccc(Cl)cc2)cc1` (stereo not drawn), the inhibition is inactive: 16.6%.

Turning to `CP(=O)(OC12CC3CC(CC(C3)C1)C2)OC12CC3CC(CC(C3)C1)C2`, the inhibition is inactive: -1.59%.

`Cc1cc(C)cc(OP(C)(=O)Nc2cccc(C(F)(F)F)c2)c1` (stereo not drawn): the inhibition is inactive: 11.1%.

In the case of `COc1ccccc1OP(C)(=O)Nc1ccc(C)c(C)c1` (stereo not drawn), the inhibition is inactive: 16.5%.

As for `COc1ccc(OP(C)(=O)Nc2ccccc2Br)cc1` (stereo not drawn), the inhibition was inactive: 6.87%.

Turning to `Cc1nc2ccc3ccccc3c2o1.O=[N+]([O-])c1cc([N+](=O)[O-])c(O)c([N+](=O)[O-])c1`, the inhibition is inactive: 3.27%.

With `CP(=O)(OCCOc1ccccc1)OCCOc1ccccc1`, the inhibition was inactive: 4.68%.

`[Au].[Au].c1ccc([PH+](c2ccccc2)c2ccccc2)cc1.c1ccc([PH+](c2ccccc2)c2ccccc2)cc1.n1n[n-]c(-c2nnn[n-]2)n1`: the inhibition is active: 67.3%.

Consider `CP(=O)(Nc1ccc(Cl)cc1Cl)Oc1ccccc1` (stereo not drawn), for which the inhibition was inactive: -0.16%.

On to `COc1ccccc1OP(C)(=O)Nc1ccc(Br)cc1` (stereo not drawn), for which the inhibition was inactive: 4.77%.

In the case of `COc1ccc(OP(C)(=O)Nc2ccccn2)cc1` (stereo not drawn), the inhibition is inactive: 5.96%.

With `CN(C)CCOC(=O)C(O)(c1ccccc1)C1CCCC1` (stereo not drawn), the inhibition is inactive: 8.51%.

For the molecule `O=[N+]([O-])c1cc([N+](=O)[O-])c(Nc2ccccn2)c([N+](=O)[O-])c1`, the inhibition was inactive: 9.66%.

As for `Cc1c(NP(C)(=O)Oc2ccc(C(C)C)cc2)c(=O)n(-c2ccccc2)n1C` (stereo not drawn), the inhibition was inactive: 9.91%.

On to `CP(=O)(Nc1ccccn1)Oc1ccccc1` (stereo not drawn), for which the inhibition is inactive: 6.73%.

In the case of `COc1ccccc1OP(C)(=O)Nc1ccc(C)cc1C` (stereo not drawn), the inhibition is inactive: 8.9%.

For the molecule `CCc1ccc(OP(C)(=O)O)cc1`, the inhibition was inactive: 7.59%.

As for `CCN(CC)CCCOC(=O)C(O)(c1ccccc1)c1ccccc1`, the inhibition is inactive: 6.93%.

In the case of `O=[N+]([O-])c1ccc2c(c1)C=Nc1ccccc1O2`, the inhibition is inactive: 2.67%.

Take `CC(C)(C)c1ccc(OP(C)(=O)Nc2ccc(SC(F)(F)F)cc2)cc1` (stereo not drawn): the inhibition is inactive: 6.39%.

As to `Cc1cccc(C)c1OP(C)(N)=O` (stereo not drawn), the inhibition was inactive: 5.44%.

Take `COc1ccccc1OP(C)(=O)Nc1ccc(C)cc1` (stereo not drawn): the inhibition is inactive: 15.1%.

Take `CCOC(=O)c1ccc(NP(C)(=O)Oc2ccccc2)cc1` (stereo not drawn): the inhibition is inactive: 15.2%.

Consider `Cc1cc(C)cc(OP(C)(N)=O)c1` (stereo not drawn), for which the inhibition is inactive: -0.21%.

As for `COc1ccccc1OP(C)(=O)Nc1cc(Cl)ccc1C` (stereo not drawn), the inhibition is inactive: 11.3%.

As for `N1=C(c2nnc(-c3nn[nH]n3)nn2)NNN1`, the inhibition was inactive: 16%.

For `CP(=S)(Nn1cnnc1)Oc1ccccc1` (stereo not drawn), the inhibition is inactive: 12.2%.

For `CP(=O)(Nc1ccccc1Br)Oc1ccccc1` (stereo not drawn), the inhibition is inactive: 14.4%.

On to `COc1ccccc1OP(C)(=O)Nc1ccccc1` (stereo not drawn), for which the inhibition is inactive: 7.69%.

In the case of `CP(=O)(Nc1ccc(SC(F)(F)F)cc1)Oc1ccc(Cl)cc1` (stereo not drawn), the inhibition was inactive: 11.8%.

In the case of `Cc1cccc(C)c1OP(C)(=O)Nc1ccc(SC(F)(F)F)cc1` (stereo not drawn), the inhibition was inactive: 4.98%.

Take `CP(=O)(Oc1ccccc1)OC(c1ccccc1)C(F)(F)F` (stereo not drawn): the inhibition was inactive: 1.07%.

In the case of `CCc1ccc(OP(C)(=O)N2CCN(c3ccc([N+](=O)[O-])cc3)CC2)cc1` (stereo not drawn), the inhibition is inactive: 11.7%.

As to `CP(=O)(NC(=O)Nc1ccccc1)Oc1ccccc1` (stereo not drawn), the inhibition was inactive: 7.57%.

As to `Cc1cc(C)cc(OP(C)(=O)Nc2ccc(SC(F)(F)F)cc2)c1` (stereo not drawn), the inhibition was inactive: 7.04%.

Consider `CCOC(=O)c1ccc(NP(C)(=O)Oc2ccc(OC)cc2)cc1` (stereo not drawn), for which the inhibition is inactive: 3.81%.

With `CCOP(C)(=S)SCC(=O)NC(C)C(=O)O` (stereo not drawn), the inhibition was inactive: 7.3%.

`CP(=O)(Nc1ccccn1)Oc1ccc(Cl)cc1` (stereo not drawn): the inhibition was inactive: 13%.

With `O=[N+]([O-])c1cc([N+](=O)[O-])c(-n2nnc3ccccc32)c([N+](=O)[O-])c1`, the inhibition is inactive: 15%.

For `Cc1nc2ccc3ccccc3c2s1.O=[N+]([O-])c1cc([N+](=O)[O-])c(O)c([N+](=O)[O-])c1`, the inhibition was inactive: 15.6%.

In the case of `O=[N+]([O-])c1cc([N+](=O)[O-])c(Nc2nnnn2CCO)c([N+](=O)[O-])c1`, the inhibition was inactive: 4.44%.

In the case of `CCOC(=O)C(CC)C1=NC(C)(C)Cc2ccccc21.O=[N+]([O-])c1cc([N+](=O)[O-])c(O)c([N+](=O)[O-])c1` (stereo not drawn), the inhibition is inactive: 8.41%.

Consider `CN1CCCCC1COC(=O)C1(O)c2ccccc2CCc2ccccc21` (stereo not drawn), for which the inhibition is inactive: 1.89%.

Regarding `COc1ccccc1OP(C)(=O)Nc1c(C)cccc1C` (stereo not drawn), the inhibition is inactive: 9.44%.

For the molecule `CP(=O)(Nc1ccc(SC(F)(F)F)cc1)Oc1ccccc1` (stereo not drawn), the inhibition is inactive: 14.1%.

On to `CCCOc1ccc(NP(C)(=O)Oc2ccc(Cl)cc2)cc1` (stereo not drawn), for which the inhibition is inactive: 6.57%.

On to `O=C(O)c1cccc(Nc2c([N+](=O)[O-])cc([N+](=O)[O-])cc2[N+](=O)[O-])c1`, for which the inhibition is inactive: 1.16%.

As to `CC1=NCCc2c1[nH]c1ccccc21.O=[N+]([O-])c1cc([N+](=O)[O-])c(O)c([N+](=O)[O-])c1`, the inhibition was inactive: 6.64%.

On to `COc1ccccc1OP(C)(=O)Nc1cccc(Br)c1` (stereo not drawn), for which the inhibition is inactive: 4.14%.

As for `CCOC(=O)c1ccc(NP(C)(=O)Oc2cc(C)cc(C)c2)cc1` (stereo not drawn), the inhibition was inactive: 8.26%.

For `Cc1cc(C)cc(OP(C)(=O)Nc2ccc(C)cc2C)c1` (stereo not drawn), the inhibition was inactive: 2.67%.

Take `Cc1ccc(C)c(NP(C)(=O)Oc2ccccc2)c1` (stereo not drawn): the inhibition was inactive: 8.17%.

Take `CP(=O)(Nc1cccc(Br)c1)Oc1ccccc1` (stereo not drawn): the inhibition was inactive: 9.14%.

In the case of `Cc1cc(C)cc(OP(C)(=O)Nc2ccccn2)c1` (stereo not drawn), the inhibition is inactive: 27.3%.
